Measurements published in ChEMBL document CHEMBL6096677, “Discovery of HZS60 as a Novel Brain Penetrant NMDAR/TRPM4 Interaction Interface Inhibitor with Improved Activity and Pharmacokinetic Properties for the Treatment of Cerebral Ischemia” (J Med Chem, 2025).
Active and inactive are the calls of the source. No cut-off for these calls is given here.

Biological target: T1, Transient receptor potential cation channel subfamily M member 4 (Mus musculus) (UniProt Q7TN37)
T1 sequence (whole entry): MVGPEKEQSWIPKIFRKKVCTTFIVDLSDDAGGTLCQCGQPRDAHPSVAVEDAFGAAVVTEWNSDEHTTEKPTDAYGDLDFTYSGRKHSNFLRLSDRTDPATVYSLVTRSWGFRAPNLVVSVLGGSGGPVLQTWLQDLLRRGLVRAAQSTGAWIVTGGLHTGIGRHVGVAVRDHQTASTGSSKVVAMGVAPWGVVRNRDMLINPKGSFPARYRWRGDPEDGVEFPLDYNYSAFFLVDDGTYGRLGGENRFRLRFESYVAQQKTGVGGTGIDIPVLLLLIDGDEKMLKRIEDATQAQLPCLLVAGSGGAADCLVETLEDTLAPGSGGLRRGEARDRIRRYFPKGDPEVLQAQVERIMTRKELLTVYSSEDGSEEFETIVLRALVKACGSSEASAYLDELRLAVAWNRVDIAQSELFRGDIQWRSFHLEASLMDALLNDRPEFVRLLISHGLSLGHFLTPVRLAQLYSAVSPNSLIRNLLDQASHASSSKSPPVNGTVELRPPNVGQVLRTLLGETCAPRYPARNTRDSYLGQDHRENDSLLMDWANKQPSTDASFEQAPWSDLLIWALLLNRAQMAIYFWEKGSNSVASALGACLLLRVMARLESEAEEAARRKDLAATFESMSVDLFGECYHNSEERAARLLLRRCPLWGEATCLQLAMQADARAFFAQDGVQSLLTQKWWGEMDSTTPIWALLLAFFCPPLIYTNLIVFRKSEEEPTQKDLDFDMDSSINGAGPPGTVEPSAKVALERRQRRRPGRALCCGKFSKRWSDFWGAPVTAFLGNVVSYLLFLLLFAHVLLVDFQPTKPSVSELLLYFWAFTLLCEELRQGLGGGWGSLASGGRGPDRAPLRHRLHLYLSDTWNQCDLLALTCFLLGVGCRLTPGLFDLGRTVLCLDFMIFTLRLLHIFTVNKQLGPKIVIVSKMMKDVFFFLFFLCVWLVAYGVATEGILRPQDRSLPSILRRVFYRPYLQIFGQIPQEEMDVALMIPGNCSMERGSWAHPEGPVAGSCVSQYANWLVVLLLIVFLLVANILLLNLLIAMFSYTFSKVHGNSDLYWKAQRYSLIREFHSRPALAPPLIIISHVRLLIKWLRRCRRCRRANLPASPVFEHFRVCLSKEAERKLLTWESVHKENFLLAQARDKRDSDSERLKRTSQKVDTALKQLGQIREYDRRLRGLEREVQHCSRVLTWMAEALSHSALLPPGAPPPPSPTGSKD
Conditions: C57BL/6, dose 25.0 mg/kg, route ig, time 21-24 hrs

With CCN(CCN)C(C)c1c(F)ccc(C#N)c1F (stereo unspecified) the inhibition was “inactive”.
